{
  "source": "patent US6608036B1",
  "about": "“Oligonucleotide N3′→P5′ thiophosphoramidates: their synthesis and administration to treat neoplasms” (Geron Corporation, priority 1999, dated 2003)",
  "system": "telomerase (affinity-purified extract from 293 cells over-expressing hTERT)",
  "assay": "Bio-Tel FlashPlate telomerase activity assay",
  "format": "biochemical, human",
  "conditions": "read-out: IC50(nM) phosphoramidate; telomerase inhibition, phosphoramidate backbone",
  "data": [
    {"substance": "5′-TAGGGTTAGACAA-3′", "values": [
      {"measurement": "IC50", "result": 1.64, "unit": "nM"}
    ]}
  ]
}
